Among the data in paper PMC9307851 are stoichiometry N values, retold here.

For the assay, the target named is Flag-tagged full-length DNMT3B (isoform 1), wild type, purified from QKO mESCs (human) (UniProt Q9UBC3). As to the kind of experiment: SEC; Flag-DNMT3B purified from QKO mESCs on anti-Flag M2 beads; Superose 6 Increase 10/300 GL; 25 mM HEPES pH 7.5, 400 mM NaCl, 5% glycerol, 5 mM DTT; fractions immunoblotted with anti-DNMT3B.

In general, stoichiometry N refers to a count of units in the complex or per binding partner. With “Flag-tagged full-length DNMT3B (isoform 1), wild type, purified from QKO mESCs (from UniProt Q9UBC3-1 1-853) (natural protein)”, the stoichiometry N turned out to be 4.
